The results in this text go back to PubChem BioAssay AID504692 (The Scripps Research Institute Molecular Screening Center, 2011).

Chains of the proteins cited; added tags and fusions are not shown.
UniProt P47898, whole entry: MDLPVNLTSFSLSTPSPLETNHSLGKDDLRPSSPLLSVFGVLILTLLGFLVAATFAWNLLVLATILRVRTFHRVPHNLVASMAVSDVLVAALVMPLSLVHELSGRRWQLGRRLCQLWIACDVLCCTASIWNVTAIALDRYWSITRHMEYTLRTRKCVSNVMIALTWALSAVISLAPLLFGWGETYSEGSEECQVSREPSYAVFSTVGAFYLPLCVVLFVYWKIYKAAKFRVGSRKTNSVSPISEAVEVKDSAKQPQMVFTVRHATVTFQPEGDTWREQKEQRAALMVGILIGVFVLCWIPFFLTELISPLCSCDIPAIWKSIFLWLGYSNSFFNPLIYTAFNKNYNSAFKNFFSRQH

This is a selection; strong and weak results do not stand in their true shares. Active and inactive are the calls of the source. No stated cut-off is given here; in the data, active means activation mostly above about 9.5% (no sharp cut-off); inactive means mostly below about 7.6%.

For this experiment, the target named is 5-hydroxytryptamine receptor 5A (Homo sapiens) (UniProt P47898). The experiment can be described thus: HTR5A agonists in luminescence cell assay, primary screen, counter-screen for OPRM1-OPRD1 heterodimer agonist project, full-deck HTS (AID 504692).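 Further: 0% = cells with vehicle only and 100% = reference agonist.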 The conditions noted are these: cell-based, at 9.3 µM, stronger effect = higher value. (In general: A counterscreen serves to expose hits that act by an unwanted route or on another target.)
For the molecule `CCOc1ncccc1C(=O)NCC1(N2CCOCC2)CCCCC1`, the activation was inactive: 4.21%. For `CN1CCC(Nc2ccc(F)c(Cl)c2)CC1`, the activation was inactive: 3.58%. Regarding `CC(C)(C)OC(=O)N1CCC(Nc2ccccc2)CC1`, the activation is inactive: 1.8%.

Turning to `O=C(O)C1(Nc2ccccc2)CCN(Cc2ccccc2)CC1`, the activation is inactive: 1.14%. The result for `CCCOc1ccc(C(=O)NCC2(N(C)C)CCCCC2)cc1` reads inactive: 2.51%. As to `COc1cccc(C(=O)N(c2cc(C)cc(C)c2)C2CCN(C(=O)OC(C)(C)C)CC2)c1`, the activation was inactive: 1.21%. Take `COc1cc(OC)cc(C(=O)NCC2(N3CCOCC3)CCCCC2)c1`: the activation was inactive: -1.37%. For `CCC(CO)(C(=O)OC1CN2CCC1CC2)c1ccccc1` (centres undefined), the activation was inactive: 1.41%. As to `CN1CCC(Nc2ccc(Cl)cc2)CC1`, the activation was inactive: 4.24%. The result for `CC(=O)N(c1ccccc1)C1CCNCC1` reads inactive: -1.78%; that for `COc1cc(OC)cc(C(=O)NCC2(N3CCCCC3)CCCCC2)c1`, inactive: -4.21%. With `Cc1ccc(C(=O)NCC2(N3CCCCC3)CCCCC2)o1`, the activation is inactive: -1.23%. For the molecule `Fc1ccccc1NC1CCN(Cc2ccccc2)CC1`, the activation was inactive: -4.79%.

With `Cc1ccc(NC2(C#N)CCN(Cc3ccccc3)CC2)cc1`, the activation is inactive: -1.03%. On to `Cc1ccccc1NC1(C#N)CCN(Cc2ccccc2)CC1`, for which the activation was inactive: 1.35%. The result for `CCN1CCC(Nc2cccc(F)c2)CC1` reads inactive: 6.4%; that for `O=C(NCC1(N2CCCCC2)CCCCC1)c1ccco1`, inactive: 6.31%. The result for `CN(C)c1ccc(C(=O)NCC2(N3CCCCC3)CCCCC2)cc1` reads inactive: -3.18%. Turning to `Cn1c(=O)[nH]cc(N(CCCl)CCCl)c1=O`, the activation was inactive: 1.45%. For `N#Cc1ccc(C(=O)NCC2(N3CCCCC3)CCCCC2)cc1`, the activation was inactive: -2.8%. The result for `CC(C)(C)OC(=O)N1CCC(N(C(=O)c2ccccc2)c2ccc(Cl)cc2)CC1` reads inactive: 3.58%; that for `CN(C)C1(CNC(=O)c2cccc(C#N)c2)CCCCC1`, inactive: -5.59%.

Regarding `c1ccc(CN2CCC(Nc3ccccc3)CC2)cc1`, the activation was inactive: -2.24%. `Cc1cc(N(CCCl)CCCl)ccc1C=O`: the activation is inactive: 1.81%.

As for `CCCN1CCC(Nc2cc(OC)cc(OC)c2)CC1`, the activation was inactive: 4.66%. With `COc1cc(C(=O)NCC2(N3CCOCC3)CCCCC2)cc(OC)c1C` the figure was inactive: 8.34%. `O=C(NCC1(N2CCOCC2)CCCCC1)c1cc(Br)ccc1Cl`: the activation was inactive: -7.08%.

As for `COc1ccc(C(=O)NCC2(N3CCOCC3)CCCCC2)cc1OC`, the activation was inactive: 5.46%. Consider `CCOC(=O)N1CCC(Nc2ccc(C)cc2)CC1`, for which the activation was inactive: 1.2%. On to `N/C(=N\O)c1c(N)no[n+]1[O-]`, for which the activation was inactive: 2.62%. Turning to `O=C(OC1CN2CCC1CC2)C1c2ccccc2C=Cc2ccccc21` (centres undefined), the activation is inactive: -0.05%.

`CC(C)c1ccc(NC2CCN(C(=O)OC(C)(C)C)CC2)cc1`: the activation was inactive: 4.34%.

As for `COc1ccc(CN(CCCl)CCCl)cc1Cl`, the activation was inactive: 3.25%.

For `CN(C)c1cccc(C(=O)NCC2(N3CCCCC3)CCCCC2)c1`, the activation was inactive: -1.97%. `COc1cc(OC)c(C(=O)NCC2(N(C)C)CCCCC2)cc1OC`: the activation is inactive: -2.87%. Regarding `O=C(NCC1(N2CCOCC2)CCCCC1)c1cc(F)c(F)cc1Cl`, the activation was inactive: 4.17%. For the molecule `CN1CCC(Nc2cccc(F)c2)CC1`, the activation is inactive: -2.19%. With `O=C(NCC1(N2CCCCC2)CCCCC1)c1cncc(Br)c1` the figure was inactive: 0.96%; with `CCCOc1ccc(C(=O)NCC2(N(C)C)CCCCC2)cc1OC`, inactive: 2.77%. With `O=C(NCC1(N2CCCCC2)CCCCC1)c1ccc(OC(F)F)cc1` the figure was inactive: 1.25%; with `CCN1CCC(Nc2ccc(Cl)cc2)CC1`, inactive: -2.67%. For the molecule `N#CC1(Nc2ccccc2)CCN(CCc2ccccc2)CC1`, the activation is inactive: -3.3%. The result for `CSc1ccc(C(=O)NCC2(N3CCOCC3)CCCCC2)cc1` reads inactive: 0.92%; that for `O=C(NCC1(N2CCCCC2)CCCCC1)c1cccc([N+](=O)[O-])c1`, inactive: 6.97%; that for `O=C(NCC1(N2CCCCC2)CCCCC1)c1cccc(C(F)(F)F)c1`, inactive: 2.94%.

With `O=C(NCC1(N2CCOCC2)CCCCC1)c1cc(=O)[nH]c2ccccc12`, the activation was inactive: -1.79%. As to `COc1cc(C(=O)NCC2(N3CCCCC3)CCCCC2)ccc1OC(F)F`, the activation was inactive: -3.68%. With `CC(C)c1ccc(C(=O)NCC2(N3CCOCC3)CCCCC2)cc1` the figure was inactive: 3.98%; with `COc1ccc(NC2CCN(C(=O)OC(C)(C)C)CC2)cc1`, inactive: -0.46%; with `CN1CCN(CCOC(=O)C(O)(c2ccccc2)c2ccccc2)CC1`, inactive: -0.47%. Turning to `O=C1CCN(Cc2ccccc2)CC1`, the activation is inactive: 3.48%.

Take `CCOc1ccc(C)cc1CN(CCCl)CCCl`: the activation was inactive: -1.59%. In the case of `CCCCOc1ccc(C(=O)NCC2(N3CCOCC3)CCCCC2)cc1`, the activation was inactive: 0.8%. As for `O=P1(N(CCCl)CCCl)SCCCS1`, the activation was inactive: 3.26%. With `O=C(NCC1(N2CCCCC2)CCCCC1)c1ccc(F)cc1` the figure was inactive: -7.24%. Turning to `CCOC(=O)N1CCC(Nc2ccc(F)cc2)CC1`, the activation is inactive: 1.26%. Consider `COc1ccc(NC2CCN(CCc3ccccc3)CC2)c(OC)c1`, for which the activation was inactive: 5.56%. Regarding `CCOC(=O)N1CCC(Nc2cccc(C)c2)CC1`, the activation is inactive: -0.2%. In the case of `COc1cc(C(=O)NCC2(N(C)C)CCCCC2)ccc1OC(F)F`, the activation is inactive: 1.48%. Regarding `COc1ccc(C(=O)NCC2(N3CCCCC3)CCCCC2)cc1`, the activation was inactive: -5.58%.

On to `CC(C)(C)OC(=O)N1CCC(N(C(=O)c2ccccc2)c2ccc(F)cc2)CC1`, for which the activation was inactive: 4.12%. Turning to `COc1ccc(C(=O)NCC2(N3CCCCC3)CCCCC2)c(OC)c1OC`, the activation is inactive: -1.41%. With `O=C(NCC1(N2CCCCC2)CCCCC1)c1ccc(=O)[nH]c1` the figure was inactive: 1.52%; with `O=C(NCC1(N2CCCCC2)CCCCC1)c1cccs1`, inactive: 2.8%; with `CSc1ccccc1C(=O)NCC1(N2CCCCC2)CCCCC1`, inactive: -1.24%.

With `Cc1cccc(NC2(C#N)CCN(Cc3ccccc3)CC2)c1`, the activation is inactive: -0.25%. For the molecule `O=C(NCC1(N2CCCCC2)CCCCC1)c1ccc(Cl)nc1`, the activation was inactive: -0.98%.

On to `Cc1cc(C)cc(N(C(=O)c2ccccc2)C2CCN(C(=O)OC(C)(C)C)CC2)c1`, for which the activation was inactive: -3.2%.

For the molecule `O=C(NCC1(N2CCOCC2)CCCCC1)c1cc2ccccc2o1`, the activation was inactive: -7.55%. The result for `N#CC1(Nc2ccccc2)CCN(Cc2ccccc2)CC1` reads inactive: 3.75%. For `O=C(NCC1(N2CCCCC2)CCCCC1)c1ccc(Cl)s1`, the activation was inactive: -0.88%. Regarding `O=C(OC1CN2CCC1CC2)C1c2ccccc2Oc2ccccc21` (centres undefined), the activation was inactive: -3.18%. As to `COc1ccc(Cl)cc1C(=O)NCC1(N2CCOCC2)CCCCC1`, the activation was inactive: 2.73%.

With `CCOC(=O)N1CCC(Nc2ccc(OC)cc2)CC1`, the activation is inactive: -1.73%.
